{"source": "patent US20010003002A1", "about": "(priority 1999, published 2001)", "conditions": "human, in vivo, po"}
{"substance": "calcium citrate", "values": [{"measurement": "Experimental value of serum calcium versus placebo", "result": "Significantly higher"}, {"measurement": "Experimental value of urinary calcium versus placebo", "result": "Significantly higher"}]}
